Measurements as given in US20160302412A1, “USES OF SALICYLIC ACID” (UNIVERSITY OF TENNESSEE RESEARCH FOUNDATION, priority 2013, published 2016).

Legend:
[1] = system: Bronco snap beans; assay: Snap bean laboratory tests: seed germination and root radical growth in modified ragdolls; assay type: in vivo; conditions: supplement to the standard seed treatment, compared to the distilled water control
[2] = system: soybean seedling diseases (Rhizoctonia solani, Macrophomina phaseolina, and Fusarium spp.); assay: Soybean field research test (seed, in-furrow fertilizer and potash form; Tables 15 to 18); conditions: in vivo

| Compound | length of the root radical of germinating seed two days after planting [1] | Stands of healthy plants [2] |
| --- | --- | --- |
| O.O.O=C([O-])c1ccccc1O.O=C([O-])c1ccccc1O.[Ca+2] [calcium salicylate, calcium salicylate dihyrate] | significantly decreased | highest in early August |
| O=C[O-].O=C[O-].[Ca+2] [calcium formate] | significantly decreased |  |
| CC(O)C(=O)[O-].CC(O)C(=O)[O-].O.O.O.O.O.[Ca+2] (centres unmarked) [calcium lactate, calcium lactate pentahydrate] | significantly decreased | initially highest |
